# Test results: ChEMBL document CHEMBL6177960, “Rational design, optimization, and biological evaluation of novel pyrrolo-pyridone derivatives as potent and orally active Cbl-b inhibitors” (Eur J Med Chem, 2025)
# Target: Tyrosine-protein kinase SYK (Homo sapiens) (UniProt P43405)
# Test: Induction of SYK phosphorylation in human CD3-positive T cells at 3.2 to 10000 nM preincubated for 15 mins followed by anti-CD3/CD28 stimulation and measured after 1 hrs by Western blot analysis
# Type: cell-based
# Conditions: CD3-positive T cell, dose 3.2-10000 nM, time 75.0 min
smiles,measurement,value
C[C@H]1CCCN(Cc2cc3c(C(F)(F)F)cn(-c4cccc([C@]5(c6nncn6C)C[C@@H](C)C5)c4)c(=O)c3[nH]2)C1,Activity,inactive

# Active and inactive are the calls of the source. The rule behind the calls is not given here.
